From ChEMBL document CHEMBL4257592 (J Med Chem, 2018)

How the values were obtained:
[1] = biological target: T1, Estradiol 17-beta-dehydrogenase 2 (Mus musculus) (UniProt P51658); conditions: at 50 nM
T1 sequence (whole entry): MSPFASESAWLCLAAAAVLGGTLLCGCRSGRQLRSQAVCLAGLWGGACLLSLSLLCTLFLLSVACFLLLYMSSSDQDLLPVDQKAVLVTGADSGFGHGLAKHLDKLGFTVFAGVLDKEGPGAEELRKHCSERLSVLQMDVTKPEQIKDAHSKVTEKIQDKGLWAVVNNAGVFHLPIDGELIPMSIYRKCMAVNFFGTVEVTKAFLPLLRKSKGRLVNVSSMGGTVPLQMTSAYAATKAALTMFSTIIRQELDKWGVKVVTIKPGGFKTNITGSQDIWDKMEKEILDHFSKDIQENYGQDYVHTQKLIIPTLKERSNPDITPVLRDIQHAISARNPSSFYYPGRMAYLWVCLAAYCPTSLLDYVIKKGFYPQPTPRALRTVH

[2] = biological target: T2, 17-beta-hydroxysteroid dehydrogenase type 1 (Mus musculus) (UniProt P51656); conditions: at 1000 nM
T2 sequence (whole entry): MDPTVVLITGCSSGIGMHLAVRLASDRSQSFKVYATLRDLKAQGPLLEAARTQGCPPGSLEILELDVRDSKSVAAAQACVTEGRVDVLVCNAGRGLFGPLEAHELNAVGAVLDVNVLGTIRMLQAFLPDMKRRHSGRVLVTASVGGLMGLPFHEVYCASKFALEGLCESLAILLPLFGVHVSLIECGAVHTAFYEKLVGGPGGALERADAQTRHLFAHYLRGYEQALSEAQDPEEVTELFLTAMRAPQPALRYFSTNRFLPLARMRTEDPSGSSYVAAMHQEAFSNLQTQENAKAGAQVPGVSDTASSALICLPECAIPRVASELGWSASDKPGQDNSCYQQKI

[3] = biological target: T3, 17-beta-hydroxysteroid dehydrogenase type 2 (Homo sapiens) (UniProt P37059); conditions: 100 nM
T3 sequence (whole entry): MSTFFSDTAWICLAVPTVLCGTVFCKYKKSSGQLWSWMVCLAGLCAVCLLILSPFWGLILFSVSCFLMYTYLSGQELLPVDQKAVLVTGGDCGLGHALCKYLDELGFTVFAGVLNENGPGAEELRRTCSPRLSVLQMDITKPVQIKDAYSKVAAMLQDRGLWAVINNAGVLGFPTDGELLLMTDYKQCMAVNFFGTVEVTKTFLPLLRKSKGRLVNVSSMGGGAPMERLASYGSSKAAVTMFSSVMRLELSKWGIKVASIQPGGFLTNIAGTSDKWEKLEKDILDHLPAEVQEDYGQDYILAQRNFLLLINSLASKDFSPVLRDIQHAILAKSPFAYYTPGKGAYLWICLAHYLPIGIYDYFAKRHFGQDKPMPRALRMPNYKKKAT

inhibition [1] [%]	inhibition [2] [%]	inhibition [3] [%]	Compound
22.4	26.8		COc1c(C)cc(-c2ccc(C(=O)c3cc(F)c(F)c(O)c3F)s2)cc1C
		20	COc1c(Cl)cc(-c2ccc(C(=O)c3cccc(O)c3C)s2)cc1Cl
		31	Cc1c(O)cccc1C(=O)c1ccc(-c2ccc(O)c(Cl)c2)s1
21	22		O=C(c1ccc(-c2cccc(CO)c2)s1)c1cc(F)c(F)c(O)c1F
		46	Cc1cc(-c2ccc(C(=O)c3cccc(O)c3C)s2)cc(C)c1O
		56	Cc1ccc(C(=O)c2cc(F)c(F)c(O)c2F)s1
		45	Cc1c(O)cccc1C(=O)c1ccc(-c2cc(Cl)c(O)c(Cl)c2)s1
		23	COc1c(C)cc(-c2ccc(C(=O)c3cccc(O)c3C)s2)cc1C
